The assay deals with T1, human ATIC (Homo sapiens, UniProt P31939).
T1 construct: N-terminal His6-tagged full-length human ATIC; made in house; host or cells: E. coli Rosetta (DE3)pLysS
The assay can be described thus: AICARFTase (ATIC) inhibition assay, Ki. The format is biochemical. The following applies: purified His-ATIC, AICARFTase activity, 50 μM 10-formyl THF, 25 °C; mean (SD), at least 3 replicates.

Protein sequences, listed by entry. Tags and fused reporters are not part of them. Lines headed by an entry give the natural chain unless they say otherwise; changes in a name come on top.
UniProt P31939: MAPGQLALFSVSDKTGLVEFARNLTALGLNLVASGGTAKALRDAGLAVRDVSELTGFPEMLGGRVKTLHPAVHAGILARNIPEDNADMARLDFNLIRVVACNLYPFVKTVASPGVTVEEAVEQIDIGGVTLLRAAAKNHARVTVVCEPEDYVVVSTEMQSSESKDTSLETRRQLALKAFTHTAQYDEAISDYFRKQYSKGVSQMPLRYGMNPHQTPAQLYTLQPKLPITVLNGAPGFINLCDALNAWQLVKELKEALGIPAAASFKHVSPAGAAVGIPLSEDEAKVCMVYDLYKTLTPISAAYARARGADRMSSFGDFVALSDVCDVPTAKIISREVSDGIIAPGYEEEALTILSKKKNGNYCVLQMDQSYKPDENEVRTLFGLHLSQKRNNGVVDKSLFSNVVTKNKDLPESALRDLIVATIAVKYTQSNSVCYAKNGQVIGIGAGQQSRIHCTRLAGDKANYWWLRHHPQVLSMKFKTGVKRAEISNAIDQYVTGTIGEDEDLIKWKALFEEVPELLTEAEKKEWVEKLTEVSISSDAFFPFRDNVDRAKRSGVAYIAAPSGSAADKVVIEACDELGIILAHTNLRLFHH

Broadly, the Ki is the equilibrium dissociation constant of an inhibitor or competing ligand from its target.

As for `Nc1nc2[nH]cc(CCc3ccc(C(=O)N[C@@H](CCC(=O)O)C(=O)O)cc3)c2c(=O)[nH]1` [PMX, N-{4-[2-(2-amino-3,4-dihydro-4-oxo-7H-pyrrolo[2,3-d]pyrimidin-5-yl)ethyl]benzoyl}-L-glutamic acid, reference compound], the Ki turned out to be 880 ± 560 nM.

The values are drawn from publication PMC10461232, “Structure-Based Design of Transport-Specific Multitargeted One-Carbon Metabolism Inhibitors in Cytosol and Mitochondria” (Journal of Medicinal Chemistry, 2023).
